Experimental data: EP2966079B1, “PYRIDOPYRIMIDINE OR PYRIMIDOPYRIMIDINE COMPOUND, PREPARATION METHOD, PHARMACEUTICAL COMPOSITION AND USE THEREOF” (Shanghai Institute of Materia Medica, Chinese Academy of …, priority 2013, dated 2014)

Experiments:
human brain glioma U87MG = assay: Cell proliferation assay (MTS method), U87MG; format: cell-based; details: U-87 MG, 72 h, read-out: U87MG IC50 (µM)
Experimental: (§1) Cell proliferation assay was based on two types of cell lines, i.e., human brain glioma U87MG and human prostate cancer LNCap, both of which were from ATCC. U87MG and LNCap contain PTEN gene deletion, and belongs to mTOR signal-dependent tumor cells. Cell culture media and related reagents were from GIBCO. U87MG cells were cultured in a MEM complete medium (containing 10% fetal bovine serum, 100 U/mL penicillin and 100 µg/mL streptomycin). […] Cells/compound was cultured for 3 days, and MTS method was used to test cell proliferation. MTS and PMS were purchased from Sigma company, a stock solution of MTS/PMS (20:1) was added into the test cells with 20 µL/well. After a suitable time of incubation, the proliferation assay results was recorded on a 96 well plate microplate reader. Relative cell viability% = (A490valueofadministeredgroup−lightvalueoftheblankgroup)/(lightvalueofDMSOgroup−lightvalueofblankgroup) × 100%. [formula]
(§2) The experimental data were processed with Microsoft Office Excel and Graphpad PRISM 5 to calculate IC50.

[1] = system: human prostate cancer LNCap; assay: Cell proliferation assay (MTS method), LNCap; format: cell-based; details: 72 h, read-out: LNCap IC50 (µM)
Experimental: as §1, §2

| SMILES | IC50 (human brain glioma U87MG) [µM] | IC50 [1] [µM] |
| --- | --- | --- |
| C[C@H]1COCCN1c1nc(N2CCOC[C@@H]2C)c2cnc(-c3ccccc3)nc2n1 [Compound 33, (3S,3'S)-4,4'-(7-phenylpyrimido[4,5-d]pyrimidin-2,4-diyl)-di(3-methylmorpholine)] | 17.7 | 2.03 |
| CNC(=O)c1cccc(-c2ccc3c(N4CCOC[C@@H]4C)nc(N4C5CCC4COC5)nc3n2)c1 [Compound 37, 3-(2-(3-oxa-8-azabicyclo[3.2.1]octan-8-yl)-4-((S)-3-methylmorpholinyl)pyrido[2,3-d]pyrimidin-7-yl)-N-methylbenzamide] | 0.24 | 0.09 |
| CNC(=O)c1cccc(-c2ccc3c(N4C5CCC4COC5)nc(N4CCOC[C@@H]4C)nc3n2)c1 [Compound 44, 3-(4-(3-oxa-8-azabicyclo[3.2.1]octan-8-yl)-2-((S)-3-methylmorpholinyl)pyrido[2,3-d]pyrimidin-7-yl)-N-methylbenzamide] | 0.56 | 0.24 |
| CNC(=O)c1cccc(-c2ccc3c(N4C5CCC4COC5)nc(N4CCOCC4)nc3n2)c1 [Compound 43, 3-(4-(3-oxa-8-azabicyclo[3.2.1]octan-8-yl)-2-morpholinylpyrido[2,3-d]pyrimidin-7-yl)-N-methylbenzamide] | 2.08 | 0.76 |
| COc1ccc(-c2cc3nc(N4C5CCC4COC5)nc(N4C5CCC4COC5)c3cn2)cc1CO [Compound 23, (5-(2,4-di(3-oxa-8-azabicyclo[3.2.1]octan-8-yl)pyrido [4,3-d]pyrimidin-7-yl)-2-methoxyphenyl)methanol] | > 60 | > 60 |
| COc1ccc(-c2cc3nc(N4CCOC[C@@H]4C)nc(N4C[C@@H](C)O[C@@H](C)C4)c3cn2)cc1CO [Compound 16, 5-(4-((2S,6R)-2,6-dimethylmorpholinyl-2-((S)-3-methylmorpholinyl)pyrido[4,3-d]pyrimidin-7-yl)-2-methoxyphenyl)methanol] | > 60 | > 60 |
| COc1ccc(-c2cc3nc(N4C[C@@H](C)O[C@@H](C)C4)nc(N4CCOCC4)c3cn2)cc1CO [Compound 15] | 24.5 | 9.39 |
| C[C@H]1COCCN1c1nc(N2CCOC[C@@H]2C)c2cnc(-c3ccccc3)cc2n1 [Compound 30, (3S,3'S)-4,4'-(7-phenylpyrido[4,3-d]pyrimidin-2,4-diyl)-di(3-methylmorpholine)] | 1.14 | 0.361 |
